Source: patent US8822494B2 (Pfizer Inc., priority 2012, dated 2014)

Sequences of proteins named here, by UniProt entry; tags and fusion partners are left off.
UniProt P21728, whole entry: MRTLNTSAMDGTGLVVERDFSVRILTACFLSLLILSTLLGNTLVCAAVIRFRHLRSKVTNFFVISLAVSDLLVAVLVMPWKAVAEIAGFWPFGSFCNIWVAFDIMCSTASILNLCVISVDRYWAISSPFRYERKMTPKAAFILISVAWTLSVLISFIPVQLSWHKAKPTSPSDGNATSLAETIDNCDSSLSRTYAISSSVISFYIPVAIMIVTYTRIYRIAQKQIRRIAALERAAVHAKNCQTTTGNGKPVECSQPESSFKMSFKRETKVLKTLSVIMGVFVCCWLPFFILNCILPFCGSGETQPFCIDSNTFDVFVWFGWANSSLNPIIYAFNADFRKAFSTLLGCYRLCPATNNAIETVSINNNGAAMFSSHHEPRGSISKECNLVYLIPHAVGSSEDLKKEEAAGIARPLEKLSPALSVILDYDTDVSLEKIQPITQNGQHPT

Key:
Human D1 [1] = target: T1, Human D1 (Homo sapiens (Human), UniProt P21728); assay: Human D1 Receptor Binding Assay ([3H]-SCH23390 competition); conditions: read-out: Human D1 Receptor Binding, Ki (μM); Geometric mean of 2-3 determinations; over-expressing LTK human cell lines, 0.5 nM [3H]-SCH23390, 30 min at 37° C.; footnote b = single determination, c = geometric mean of ≧4 determinations
Description: D1 binding assays were performed using over-expressing LTK human cell lines. […] These ligand and tissue concentrations were used in time course studies to determine linearity and equilibrium conditions for binding. Binding was at equilibrium with the specified amount of tissue in 30 minutes at 37° C. […] The pellet was resuspended in assay buffer [50 mM Tris (pH 7.4@ RT) containing 4 mM MgSO4 and 0.5 mM EDTA]. […] Non-specific binding was determined by radioligand binding in the presence of a saturating concentration of (+)-Butaclamol (10 μM), a D1 antagonist. After a 30 minute incubation period at 37° C., assay samples were rapidly filtered through Unifilter-96 GF/B PEI-coated filter plates and rinsed with 50 mM Tris buffer (pH 7.4 at 4° C.). […] Ki values were calculated according to the Cheng-Prusoff equation: […]

Human D1 [2] = target: T1, Human D1; assay: D1 cAMP HTRF Assay; assay type: cell-based; conditions: HEK293T/hD1#1 stable cell line, 30 min at room temperature; footnote a = geometric mean of ≧7 determinations
From the text: The D1 cAMP (Cyclic Adenosine Monophosphate) HTRF (Homogeneous Time-Resolved Fluorescence) Assay used and described herein is a competitive immunoassay between native cAMP produced by cells and cAMP labeled with XL-665. This assay was used to determine the ability of a test compound to agonize (including partially agonize) D1. A Mab anti-cAMP labeled Cryptate visualizes the tracer. […] The signal, therefore, is inversely proportional to the concentration of cAMP in the sample. A time-resolved and ratiometric measurement (em 665 nm/em 620 nm) minimizes the interference with medium. cAMP HTRF assays are commercially available, for example, from Cisbio Bioassays, IBA group.
The cAMP Dynamic kit was obtained from Cisbio International (Cisbio 62AM4PEJ). […] An EnVision (PerkinElmer) reader was used to read HTRF. […]
Frozen cells were quickly thawed, re-suspended in 50 mL warm media and allowed to sit for 5 min prior to centrifugation (1000 rpm) at room temperature. […] The assay plate was read on an EnVision plate reader using Cisbio recommended settings. […]
Data analysis was done using computer software. Percent effects were calculated from the compound controls. Ratio EC50 was determined using the raw ratio data from the EnVision reader. The cAMP standard curve was used in an analysis program to determine cAMP concentrations from raw ratio data. cAMP EC50 was determined using the calculated cAMP data.

- Ki (Human D1 [1]): 0.0931 µM
- EC50 (Human D1 [2]): 0.26 µM
Compound: Cc1cc(Oc2nccc3[nH]ncc23)ccc1-c1c(C)nc[n+]([O-])c1C [Example 13, 4-[4-(4,6-dimethyl-1-oxidopyrimidin-5-yl)-3-methylphenoxy]-1H-pyrazolo[4,3-c]pyridine]
